Experimental findings from patent publication US20110039779A1 (published 2011) are described below.

Protein sequences, listed by entry. Tags and fused reporters are not part of them. Residues count along the entry.
UniProt P08069, 31-1367 limits assumed: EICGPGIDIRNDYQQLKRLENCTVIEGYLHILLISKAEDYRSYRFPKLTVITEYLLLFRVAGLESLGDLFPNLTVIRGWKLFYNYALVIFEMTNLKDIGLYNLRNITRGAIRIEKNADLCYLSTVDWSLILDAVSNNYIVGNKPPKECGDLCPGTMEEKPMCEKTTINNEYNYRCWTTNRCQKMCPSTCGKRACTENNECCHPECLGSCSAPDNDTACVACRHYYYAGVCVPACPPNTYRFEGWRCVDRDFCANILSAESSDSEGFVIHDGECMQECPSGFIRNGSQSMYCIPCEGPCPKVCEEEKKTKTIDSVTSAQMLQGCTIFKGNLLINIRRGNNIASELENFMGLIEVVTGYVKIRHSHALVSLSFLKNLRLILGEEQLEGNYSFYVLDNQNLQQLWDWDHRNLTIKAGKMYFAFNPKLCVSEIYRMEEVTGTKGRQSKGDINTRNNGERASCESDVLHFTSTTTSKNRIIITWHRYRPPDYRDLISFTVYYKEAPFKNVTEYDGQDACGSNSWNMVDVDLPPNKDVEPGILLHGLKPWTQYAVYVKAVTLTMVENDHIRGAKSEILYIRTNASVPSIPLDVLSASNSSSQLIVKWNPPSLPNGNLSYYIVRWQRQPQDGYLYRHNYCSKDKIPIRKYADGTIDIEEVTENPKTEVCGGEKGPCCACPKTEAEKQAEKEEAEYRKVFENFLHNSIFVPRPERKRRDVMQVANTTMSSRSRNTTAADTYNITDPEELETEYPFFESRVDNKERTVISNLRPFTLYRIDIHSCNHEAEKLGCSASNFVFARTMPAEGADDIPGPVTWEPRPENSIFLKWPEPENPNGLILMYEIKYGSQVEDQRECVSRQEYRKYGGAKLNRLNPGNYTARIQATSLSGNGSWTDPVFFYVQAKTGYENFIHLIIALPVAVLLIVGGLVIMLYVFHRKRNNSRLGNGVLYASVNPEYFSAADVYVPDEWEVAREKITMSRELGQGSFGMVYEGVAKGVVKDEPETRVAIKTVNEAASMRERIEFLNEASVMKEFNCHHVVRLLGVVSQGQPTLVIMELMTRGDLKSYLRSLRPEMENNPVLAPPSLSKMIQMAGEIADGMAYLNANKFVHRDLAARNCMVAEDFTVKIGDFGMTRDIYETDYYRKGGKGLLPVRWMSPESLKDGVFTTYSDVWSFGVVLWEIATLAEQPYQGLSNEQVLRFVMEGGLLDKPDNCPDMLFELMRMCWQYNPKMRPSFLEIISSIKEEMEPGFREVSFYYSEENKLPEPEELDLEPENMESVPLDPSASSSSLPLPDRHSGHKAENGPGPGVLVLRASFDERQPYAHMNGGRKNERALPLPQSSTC

The labels stand for the following.
B1: F322 (peptide)
peptide: SFYSCLESLVNGPAEKSRGQWDGCRSFYSWPGSSQLTVKPEISPDLRFGGR
modifications: the two parts are conjugated by (Pox)2 (Pox = 8-amino-3,6-dioxaoctanoic acid)
notes: 141 conjugated by POX

In this experiment the target is T1, human insulin-like growth factor-1 receptor (HIGF-1R) (human, UniProt P08069 31-1367).
T1 construct: Detergent-solubilised receptor purified on WGA-agarose; also called HIGFIR
Nature of the experiment: 125I-IGF-1 displacement, SPA-assay. The source says:
In certain cases, a scintillation proximity assay (SPA assay) was used to determine IGF-1R affinity.
In the case of GSLDESFYDWFERQLGAVVGRDGGPITRDVGGDGRRGYNV [F286], the affinity, expressed as Kd, was 2300 nM.

The molecule ETGRECWGRPCGEADSFYDWFVQQGSE [F267] returned a Kd of 1100 nM.

Consider SFYSCLESLVTGPAKRSRGQWEGCRR (N-terminal acetyl (Ac-)) [F307], for which the affinity, expressed as Kd, was 46 nM.

The molecule SFYSCLASLLTGTPDENRGGWERFRCLDQAGDGLWGEPSGRGLVS [F388] displayed a Kd of 2100 nM.

The molecule TFYSCLASLLTGPREQNRGAWERCR [F423] gave a dissociation constant (Kd) of 250 nM.

For EGVDEVRAWLWCQISGLGCESGFRDNSFYEWFERQLGEKK [F189], the dissociation constant Kd was found to be 52 nM.

Regarding B1, binding was put at a Kd of 1200 nM.

As to SFYSCLESLVQGPAEQSQGQWEGCR [F338], the dissociation constant Kd was determined as 11000 nM.

In turn, SFYSCLESLVQGPAESSDGQWEGCR [F339] yielded an equilibrium dissociation constant (Kd) of 13000 nM.

Molecule EGYSMCDLLARAQIVELDLCERGVQVE [F371] showed an equilibrium dissociation constant (Kd) of 2900 nM.

Molecule EGRSMCHLLARAQIVELDLCERGVQVE [F372] yielded a Kd of 6800 nM.

With NFYGCLLDLSLGVPSFGWRRRCITA [F408], the equilibrium dissociation constant (Kd) worked out at 16000 nM.

QFYGCLLKLSLGVPSFGWRRRCITA (N-terminal acetyl (Ac-)) [F419] gave a Kd of 220 nM.

QFYGCLLDLSLKVPSFGWRRRCITA (N-terminal acetyl (Ac-)) [F421] registered a Kd of 11000 nM.

Take ELCQSWGVRIGWLAGLCPEEGRVDDAFYEWFERQLGE [F412]: the equilibrium dissociation constant (Kd) turned out to be 17000 nM.

SFYSCLESLVAGPAEKSRGQWEGCR [F258] yielded a dissociation constant Kd of 220 nM. This Kd is about 77-fold lower than that of the molecule before.

As to SFYSCLESLVTGPAEKSEGQWEGCR (N-terminal acetyl (Ac-)) [F367], the affinity, expressed as Kd, was 2200 nM.

As to SFYSCLESLVNGPAEKSRGQWDGCR [F249], binding was put at a Kd of 190 nM. This Kd lies about 12-fold lower than the previous one.

NFHDCLLDLSRGGPSSDWRRRCITA [F439] returned a dissociation constant (Kd) of 21000 nM. Compared with the last molecule, the Kd is about 110-fold higher.

Consider TFYSCLASLLDGTTQPHRGSWERCRGGLS [F378], for which the Kd was found to be 290 nM.

ESFYSCLESLVNGPAEKSRGQWDGCRE [F215] came in with a dissociation constant (Kd) of 330 nM.

In the case of EEDDQNWEGYNWFNEQLGKEGRVDDAFYEWFERQLGE [F413], the equilibrium dissociation constant (Kd) was determined as 360 nM.

As for RVSDCRGRPCGDAANFYEWFVQQGS [F266], binding was characterised by a dissociation constant (Kd) of 220 nM. Compared with the last molecule, the Kd is about 1.6-fold lower.

SFYSCLESLVSGPAEKSHRRWEACR [F321]: binding was characterised by a dissociation constant (Kd) of 110 nM.

GSPQPERGLRERSRWLDQERAWLWCEISGRGCLS [F389] yielded a dissociation constant (Kd) of 8900 nM.

As for SFYSCLESLVQGPAEKSRGQWEGCRK [F293], the dissociation constant Kd was 89 nM.

With SFYSCLESLVNGPAEKSRGQWDGCRK (also called RP33/F250) [F250], binding was characterised by a dissociation constant (Kd) of 78 nM.

The molecule SFYSCLESLVNAPAEKSRGQWEGCRK [F296] returned a Kd of 57 nM. The Kd values of the last two molecules are within 1.5-fold of each other.

For the molecule SFYSCLESLVAGPAEKSRGQWEGCRK [F259], binding was characterised by a dissociation constant (Kd) of 84 nM.

Take SFYSCLESLVNAPAEKSRGQWDACRK [F298]: the affinity, expressed as Kd, was 64 nM.

In turn, SFYSCLESLVKRPTERSRGQWVGCR [F320] returned a Kd of 110 nM.

For TFYSCLASLLTGTPQPNRGPWERCRKK [F291], the dissociation constant (Kd) is 69 nM.

Regarding EIQRDCQGRPCGDAANFYDWFVQQDSE [F268], binding was put at a Kd of 370 nM.

The molecule NFYDCLQDLSLGDPSVDWRRRCITA [F440] came in with a Kd of 21000 nM.

Regarding VQDDCRGRPCGDADSFYEWFDQQAGYGSSSRRAPQT [F364], the affinity, expressed as Kd, was 47 nM.

With SFYSSMACLLNGTPLPDRGPRERWRACLT [F379], the Kd is 17000 nM. Compared with the last molecule, the Kd is about 360-fold higher.

In turn, EGSLDESFYDWFERQLGGYSWLRDVLMEKQAQLKREGSVGRQE (the two parts are conjugated by POX2 (Pox = 8-amino-3,6-dioxaoctanoic acid), 111 conjugated by POX) [F255] came in with a Kd of 13000 nM. The Kd values of the last two molecules are within 1.5-fold of each other.

As for VGRASGFPENFYDWFGRQLSLQSGEQRR (N-terminal acetyl (Ac-)) [F287], the Kd stood at 7600 nM.

In turn, SFYSCLASLVTGIPRSNSGTQVFCR [F422] had an equilibrium dissociation constant (Kd) of 220 nM.

As for GEHFCQLLISLCGDDCGPVNCGGGS [F436], the affinity, expressed as Kd, was 22000 nM. Compared with the last molecule, the Kd is about 100-fold higher.

The molecule TGAPQPNRGPLDRCRGSLDECFYGWFERQLL [F273] came in with an equilibrium dissociation constant (Kd) of 7600 nM.

In the case of VGCRASGFPENFYDWFGRQLSLQSGCEQR [F290], binding was characterised by a dissociation constant (Kd) of 6700 nM.

In turn, VQDDCRGRPCGDDADSFYEWFDQQAS [F342] showed a dissociation constant (Kd) of 440 nM.

For SFYDCLLDLSIGGPSSDWRRRCITA [F441], the equilibrium dissociation constant (Kd) came out at 11000 nM.

GSLDESFYDWFERQLGADTKSPRWGSGTREHQGARGGAPGR [F285] came in with a Kd of 1700 nM.

The molecule SFYSCLASLVTGTPQACRGPWERGRGYLS [F377] returned a dissociation constant (Kd) of 120 nM.

For EVDRDCQARPCGDAANFYDWFGQQGTE [F269], the Kd was found to be 890 nM.

For the molecule ESFYSCLASLVAGTPWPKGGSWERCREE [F230], the Kd amounted to 46 nM. This Kd is about 19-fold lower than that of the molecule before.

Regarding TLNPRGPWEGSRGSMDDSFYRWFERQLE [F272], binding was characterised by a dissociation constant (Kd) of 1500 nM.

Molecule AWRYPEDDLEDWLARGRGYG [F435] had an equilibrium dissociation constant (Kd) of 13000 nM.

For EGSSMCHLLARAQIVDLTLCEMDVLED [F374], the Kd came out at 17000 nM.

In turn, EGRVDDAFYEWFERQLGEEEDDQNWEGYNWFNEQLGK [F411] displayed a Kd of 290 nM.

In the case of TFYSGPVSLLTGTPRTNRSAWERGRGSLDDSFYDWFERQLSR [F274], the Kd turned out to be 1400 nM.

Consider RQWDCRGRPCGDAESFYEWFDQQRS [F264], for which binding was put at a Kd of 44 nM.

For the molecule SFYSCLASLLTATSQPNRGPGDRCERSGGGWLS [F394], the Kd turned out to be 390 nM.

With QFYGCLLDLSLGVPSFGWKKKCITA [F392], the affinity, expressed as Kd, was 17000 nM. Compared with the last molecule, the Kd is about 44-fold higher.

With GNGDGMFYQLLSLLVGRDMH [F433], the dissociation constant Kd stood at 18000 nM.

Molecule GSGGYASRDESFYEWFERQLA [F276] yielded a dissociation constant Kd of 1600 nM.

The molecule RGNVGGGSLDESFYEWFERQLGR [F271] displayed a Kd of 1700 nM. This Kd and that of the molecule before are within 1.5-fold of each other.

The term Kd denotes a measure of binding affinity in units of concentration. Read a low Kd as a tighter complex.
